Source: ChEMBL document CHEMBL1148528, “Multivalent antimicrobial peptides from a reactive polymer scaffold” (J Med Chem, 2006)

Assays:
RBCs [1] = assay: Hemolysis in sheep RBC; format: functional, Ovis aries, Erythrocyte
Outline: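 Fresh red blood cells were exposed to compound. HD50 is the concentration producing 50% hemolysis, in µg/mL. Mean of three independent experiments, each performed in parallel.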

RBCs [2] = assay: Hemolytic index, HD50 in sheep red blood cell/IC50 against Escherichia coli; format: functional, Erythrocyte
Escherichia coli = assay: Antibacterial activity against Escherichia coli ATCC 25922; format: functional, organism-based
Bacillus subtilis = assay: Antibacterial activity against Bacillus subtilis ATCC 6633; format: functional, organism-based
RBCs [3] = assay: Hemolytic index, HD50 in sheep red blood cell/IC50 against Bacillus subtilis; format: functional, Erythrocyte

IC50 (Escherichia coli) [µg/mL]	IC50 (Bacillus subtilis) [µg/mL]	SMILES	HD50 (RBCs [1]) [µg/mL]	HI (RBCs [2])	HI (RBCs [3])
586 (≈ 788 µM)	131 (≈ 176 µM)	CC(=O)N[C@@H](CCCN=C(N)N)C(=O)N[C@@H](CCCN=C(N)N)C(=O)N[C@@H](Cc1c[nH]c2ccccc12)C(=O)N[C@@H](Cc1c[nH]c2ccccc12)C(N)=O	2280	3.9	17.4
510 (≈ 686 µM)	142 (≈ 191 µM)	CC(=O)N[C@@H](CCCN=C(N)N)C(=O)N[C@@H](Cc1c[nH]c2ccccc12)C(=O)N[C@@H](CCCN=C(N)N)C(=O)N[C@@H](Cc1c[nH]c2ccccc12)C(N)=O	1850	3.6	13

Values after ≈ are worked out from the molar mass of the structure shown.
